Data published in US20060079453A1, “Hla binding peptides and their uses” (priority 2002, published 2006).

Chains of the proteins cited; added tags and fusions are not shown. Residues count along the entry.
UniProt P79483, 30-266: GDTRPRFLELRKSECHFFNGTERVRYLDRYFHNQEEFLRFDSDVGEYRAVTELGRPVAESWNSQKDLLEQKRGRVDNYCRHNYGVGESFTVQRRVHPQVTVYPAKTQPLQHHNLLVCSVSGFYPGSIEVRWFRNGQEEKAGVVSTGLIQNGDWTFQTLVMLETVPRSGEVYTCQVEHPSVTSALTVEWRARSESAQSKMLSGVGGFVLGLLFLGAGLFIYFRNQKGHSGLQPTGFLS

Experiments:
Test in all cases: biochemical
Format in all cases: binding
HLA-DR DRB3*0101 (DR52) = HLA-DR DRB3*0101 (DR52) (Homo sapiens, UniProt P01903+P79483)
HLA-DR DRB1*0901 (DR9) = HLA-DR DRB1*0901 (DR9) (Homo sapiens, UniProt P01903+P01911, A100R/A103E/D57H/D86V/F55Y/F60I/F76Y/I96F/K127E/L162R/M171V/P40D/Q125H/Q99R/R33Q/R42F/S133A/S66N/T210M/V115G/W38K/Y107V/Y59G/Y89S); details: DRB1 *0901
HLA-DR DRB4*0101 (DR53) = HLA-DR DRB4*0101 (DR53) (Homo sapiens, UniProt P01903+P13762, G164S); details: DRB4 *0101
HLA-DR DRB1*0701 (DR7) = HLA-DR DRB1*0701 (DR7) (Homo sapiens, UniProt P01903+P01911, A100R/A102G/A103Q/D57E/D86V/E43K/F76Y/K127E/L162R/M171V/P40G/Q125H/Q99D/R33Q/R42Y/R54Q/S133A/S66F/T210M/V115G/Y107V/Y59L/Y89S); details: DRB1 *0701
HLA-DR DRB1*1101 (DR11) = HLA-DR DRB1*1101 (DR11) (Homo sapiens, UniProt P01903+P01911, A100R/A169T/A87E/I96F/K41T/L162R/M171V/P40S/Q125H/Q178H/Q39Y/Q99D/R42S/S66Y/T262R/V115G/W38E); details: DRB1 *1101
HLA-DR DRB1*0301 (DR3) = HLA-DR DRB1*0301 (DR3) (Homo sapiens, UniProt P01903+P01911, A100K/A102G/A103R/A169T/F55Y/I96L/K41T/L162R/M171V/P40S/Q125H/Q178H/Q39Y/R42S/S66N/T106N/T262R/W38E/Y61H)
HLA-DR DRB1*0802 (DR8) = HLA-DR DRB1*0802 (DR8) (Homo sapiens, UniProt P01903+P01911, A100R/A103L/A169T/F76Y/H45Y/I96F/K41T/L162R/M171V/P40S/Q125H/Q178H/Q39Y/Q99D/R218S/R42G/S66Y/V115G/W38E)

**Q.** With `CC[C@H](C)[C@H](NC(=O)[C@H](CCCNC(=N)N)NC(=O)[C@H](CC(C)C)NC(=O)[C@H](Cc1ccccc1)NC(=O)[C@@H](NC(=O)[C@H](CCC(=O)O)NC(=O)[C@@H](NC(=O)[C@H](CCCCN)NC(=O)[C@H](CC(=O)O)NC(=O)[C@H](CCSC)NC(=O)[C@@H](N)CC(=O)O)C(C)C)[C@@H](C)O)C(=O)N[C@H](C(=O)N[C@@H](CCC(N)=O)C(=O)N[C@@H](CS)C(=O)N[C@@H](CCCNC(=N)N)C(=O)O)C(C)C` as the molecule, how does the IC50 (HLA-DR DRB3*0101 (DR52)) read?
**A.** > 27.3 µM

**Q.** Which IC50 (HLA-DR DRB1*0901 (DR9)) does the source give for `CC[C@H](C)[C@H](NC(=O)[C@H](CC(N)=O)NC(=O)[C@H](CCC(=O)O)NC(=O)[C@H](CC(N)=O)NC(=O)[C@H](CC(C)C)NC(=O)[C@H](CO)NC(=O)[C@H](CS)NC(=O)[C@H](Cc1c[nH]cn1)NC(=O)[C@@H](N)CCC(=O)O)C(=O)N[C@H](C(=O)N[C@H](C(=O)N1CCC[C@H]1C(=O)N[C@@H](CC(=O)O)C(=O)N[C@H](C(=O)N[C@@H](CCCCN)C(=O)O)[C@@H](C)O)C(C)C)[C@@H](C)O` here?
**A.** > 78.9 µM

**Q.** What about the IC50 (HLA-DR DRB4*0101 (DR53)) of the same molecule?
**A.** 52.9 µM

**Q.** What about the IC50 (HLA-DR DRB1*0701 (DR7)) of the same molecule?
**A.** 32.4 µM

**Q.** And the IC50 (HLA-DR DRB1*1101 (DR11))?
**A.** > 1110 µM

**Q.** Which IC50 (HLA-DR DRB3*0101 (DR52)) does the source give for `CC[C@H](C)[C@H](NC(=O)[C@H](CCCNC(=N)N)NC(=O)[C@H](CC(C)C)NC(=O)[C@@H](N)Cc1ccccc1)C(=O)N[C@H](C(=O)N[C@@H](CCC(N)=O)C(=O)N[C@H](C(=O)N[C@@H](CCCNC(=N)N)C(=O)N[C@@H](CO)C(=O)N[C@H](C(=O)N[C@@H](CCC(=O)O)C(=O)NCC(=O)N[C@@H](CO)C(=O)N[C@H](C(=O)NCC(=O)N[C@@H](Cc1ccccc1)C(=O)O)[C@@H](C)O)C(C)C)[C@@H](C)O)C(C)C` here?
**A.** 27.3 µM

**Q.** With `CC[C@H](C)[C@H](NC(=O)[C@H](CCC(=O)O)NC(=O)[C@H](Cc1c[nH]cn1)NC(=O)[C@@H](NC(=O)[C@@H](NC(=O)[C@H](C)NC(=O)[C@H](C)NC(=O)CN)C(C)C)C(C)C)C(=O)N[C@H](C(=O)N[C@@H](CCCNC(=N)N)C(=O)N[C@@H](CO)C(=O)N[C@@H](Cc1ccccc1)C(=O)NCC(=O)N[C@H](C(=O)N[C@@H](CC(C)C)C(=O)O)[C@@H](C)O)C(C)C` as the molecule, how does the IC50 (HLA-DR DRB4*0101 (DR53)) read?
**A.** 0.089 µM

**Q.** Which IC50 (HLA-DR DRB4*0101 (DR53)) does the source give for `CC(C)C[C@H](NC(=O)[C@H](C)NC(=O)[C@H](CCCNC(=N)N)NC(=O)[C@H](C)NC(=O)[C@H](C)NC(=O)CNC(=O)CNC(=O)[C@H](CC(C)C)NC(=O)[C@@H]1CCCN1C(=O)[C@H](C)NC(=O)CN)C(=O)N[C@@H](C)C(=O)N[C@@H](Cc1c[nH]cn1)C(=O)NCC(=O)N[C@H](C(=O)O)C(C)C` here?
**A.** 3.96 µM

**Q.** `CC[C@H](C)[C@H](NC(=O)CN)C(=O)N[C@@H](CCC(N)=O)C(=O)N[C@H](C(=O)N[C@@H](CC(C)C)C(=O)N[C@@H](CCSC)C(=O)NCC(=O)N[C@@H](CCCNC(=N)N)C(=O)N[C@@H](CC(C)C)C(=O)N[C@@H](CCC(=O)O)C(=O)N[C@@H](CC(=O)O)C(=O)NCC(=O)N[C@@H](CO)C(=O)N1CCC[C@H]1C(=O)N[C@@H](CCCNC(=N)N)C(=O)O)[C@@H](C)O` was tested. Which IC50 (HLA-DR DRB1*0901 (DR9)) did it give?
**A.** 37.8 µM

**Q.** And the IC50 (HLA-DR DRB1*0301 (DR3))?
**A.** > 55.9 µM

**Q.** And the IC50 (HLA-DR DRB3*0101 (DR52))?
**A.** 186 µM

**Q.** And the IC50 (HLA-DR DRB1*0802 (DR8))?
**A.** > 33.3 µM

**Q.** Which IC50 (HLA-DR DRB1*0301 (DR3)) does the source give for `CSCC[C@H](N)C(=O)N[C@@H](CO)C(=O)N[C@@H](Cc1ccc(O)cc1)C(=O)N[C@@H](CC(N)=O)C(=O)N[C@@H](CC(C)C)C(=O)N[C@@H](CC(C)C)C(=O)NCC(=O)N[C@@H](Cc1ccccc1)C(=O)N[C@@H](CC(C)C)C(=O)N[C@@H](CCC(N)=O)C(=O)N[C@@H](CCCNC(=N)N)C(=O)N[C@@H](CO)C(=O)N[C@@H](CO)C(=O)N[C@@H](CC(N)=O)C(=O)N[C@@H](CS)C(=O)O` here?
**A.** 157 µM

**Q.** And the IC50 (HLA-DR DRB3*0101 (DR52))?
**A.** > 42.2 µM

**Q.** With `CC[C@H](C)[C@H](NC(=O)[C@H](CO)NC(=O)[C@H](CC(C)C)NC(=O)[C@@H](NC(=O)[C@H](CC(C)C)NC(=O)[C@H](CC(=O)O)NC(=O)[C@H](Cc1c[nH]c2ccccc12)NC(=O)[C@@H](N)CCSC)C(C)C)C(=O)N[C@@H](C)C(=O)N[C@@H](CC(C)C)C(=O)N[C@@H](CO)C(=O)N[C@H](C(=O)NCC(=O)N[C@@H](CS)C(=O)N[C@H](C(=O)O)[C@@H](C)O)C(C)C` as the molecule, how does the IC50 (HLA-DR DRB3*0101 (DR52)) read?
**A.** 15.2 µM

**Q.** Which results are given for `CC(C)C[C@H](NC(=O)[C@H](CC(C)C)NC(=O)[C@@H](N)CC(N)=O)C(=O)N[C@@H](C)C(=O)N[C@@H](CC(N)=O)C(=O)N[C@H](C(=O)N[C@@H](Cc1ccc(O)cc1)C(=O)N[C@@H](Cc1c[nH]cn1)C(=O)N[C@@H](CCC(N)=O)C(=O)N[C@@H](CCCNC(=N)N)C(=O)N[C@@H](CC(N)=O)C(=O)N[C@@H](Cc1c[nH]cn1)C(=O)N[C@@H](CC(C)C)C(=O)N[C@@H](CCCCN)C(=O)N[C@H](C(=O)O)[C@@H](C)O)C(C)C`?
**A.** IC50 (HLA-DR DRB1*0301 (DR3)): 40.3 µM; IC50 (HLA-DR DRB1*0701 (DR7)): 8 µM; IC50 (HLA-DR DRB3*0101 (DR52)): > 123 µM

**Q.** Which results are given for `CC[C@H](C)[C@H](NC(=O)[C@H](CCC(=O)O)NC(=O)[C@H](CCC(=O)O)NC(=O)[C@@H]1CCCN1)C(=O)N[C@@H](CCCCN)C(=O)N[C@@H](CCC(N)=O)C(=O)N[C@@H](CC(C)C)C(=O)N[C@@H](CCC(N)=O)C(=O)N[C@@H](CCC(N)=O)C(=O)N[C@@H](Cc1ccccc1)C(=O)N[C@@H](CCC(N)=O)C(=O)N[C@@H](CCCCN)C(=O)N[C@@H](CCC(=O)O)C(=O)N[C@@H](CC(=O)O)C(=O)N[C@@H](C)C(=O)O`?
**A.** IC50 (HLA-DR DRB1*0901 (DR9)): > 77.3 µM; IC50 (HLA-DR DRB1*0301 (DR3)): 40.2 µM; IC50 (HLA-DR DRB1*0701 (DR7)): 49.5 µM; IC50 (HLA-DR DRB3*0101 (DR52)): > 26.3 µM; IC50 (HLA-DR DRB1*0802 (DR8)): 11.9 µM

**Q.** Which IC50 (HLA-DR DRB3*0101 (DR52)) does the source give for `CC[C@H](C)[C@H](NC(=O)[C@@H](N)CCC(N)=O)C(=O)N[C@@H](Cc1ccc(O)cc1)C(=O)N[C@H](C(=O)N[C@@H](C)C(=O)N[C@@H](C)C(=O)N[C@@H](Cc1ccccc1)C(=O)N[C@H](C(=O)N[C@H](C(=O)N[C@@H](CCC(N)=O)C(=O)N[C@@H](C)C(=O)N[C@@H](C)C(=O)N[C@@H](C)C(=O)N[C@@H](CCC(=O)O)C(=O)N[C@H](C(=O)O)[C@@H](C)O)C(C)C)[C@@H](C)O)C(C)C` here?
**A.** 1.32 µM

**Q.** With `CC(C)C[C@H](NC(=O)[C@H](CCCNC(=N)N)NC(=O)CNC(=O)[C@H](CC(N)=O)NC(=O)[C@H](CC(C)C)NC(=O)[C@H](CCC(N)=O)NC(=O)[C@H](Cc1c[nH]c2ccccc12)NC(=O)[C@H](CC(C)C)NC(=O)[C@H](CC(C)C)NC(=O)[C@H](CCCCN)NC(=O)[C@H](CCC(N)=O)NC(=O)[C@H](CO)NC(=O)[C@@H](N)CCC(N)=O)C(=O)N[C@@H](CCC(=O)O)C(=O)N[C@@H](Cc1ccc(O)cc1)C(=O)O` as the molecule, how does the IC50 (HLA-DR DRB4*0101 (DR53)) read?
**A.** 0.166 µM

**Q.** And the IC50 (HLA-DR DRB1*0701 (DR7))?
**A.** 1.17 µM
